This is an account of results in ChEMBL document CHEMBL1127536, “2-Azetidinones as inhibitors of cholesterol absorption” (J Med Chem, 1994).

The experiment has as its target T1, Sterol O-acyltransferase 1 (Rattus norvegicus) (UniProt O70536).
T1 sequence (whole entry): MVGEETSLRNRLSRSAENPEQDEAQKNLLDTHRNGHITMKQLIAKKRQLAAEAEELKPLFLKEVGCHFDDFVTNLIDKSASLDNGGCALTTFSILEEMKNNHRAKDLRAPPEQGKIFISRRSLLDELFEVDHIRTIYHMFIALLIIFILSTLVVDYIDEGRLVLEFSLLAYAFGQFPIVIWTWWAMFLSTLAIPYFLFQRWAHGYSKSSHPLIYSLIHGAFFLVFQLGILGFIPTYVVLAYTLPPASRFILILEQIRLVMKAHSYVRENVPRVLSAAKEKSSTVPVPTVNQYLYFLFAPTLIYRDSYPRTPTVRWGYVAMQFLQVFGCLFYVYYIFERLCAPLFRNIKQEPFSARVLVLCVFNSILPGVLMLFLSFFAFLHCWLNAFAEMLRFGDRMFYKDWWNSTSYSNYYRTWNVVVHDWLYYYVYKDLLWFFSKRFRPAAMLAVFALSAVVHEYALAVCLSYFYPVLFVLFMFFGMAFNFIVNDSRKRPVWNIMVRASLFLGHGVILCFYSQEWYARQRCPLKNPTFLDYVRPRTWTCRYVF
As to the kind of experiment: Inhibition of Acyl coenzyme A:cholesterol acyltransferase in microsomal ACAT assay at 10 uM. The method in brief:
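Rat hepatic microsomes (12.5 μg protein) with 90 µM fatty-acid-free BSA in 0.1 M potassium phosphate, 2 mM DTT, pH 7.4. Compound added from DMSO stocks and preincubated 15 min at 37 °C. Reaction started with [³H]-oleoyl-CoA (10 μM final) and run 15 min at 37 °C. Aliquot spotted on silica TLC, developed, and radioactivity in the cholesteryl oleate band counted by scintillation.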

One may read the inhibition as the percentage by which the read-out fell short of the control. A higher inhibition goes with a response far below the control.

In turn, `COc1ccc([C@@H]2[C@@H](CCCc3ccccc3)C(=O)N2c2ccc(OC)cc2)cc1` (racemic) yielded an inhibition of 33%.
`COc1ccc([C@@H]2[C@H](CCCc3ccccc3)C(=O)N2c2ccc(OC)cc2)cc1` returned an inhibition of 51%.
With `COc1ccc([C@@H]2[C@@H](CCCc3ccccc3)C(=O)N2c2ccc(OC)cc2)cc1`, the inhibition amounted to 30%.
